## Antibody variant affinities, Ab-14 heavy chain, assay 1

From the AlphaSeq antibody data of Engelhart et al. 2022 (doi:10.1038/s41597-022-01779-4), copy in the FLAb collection.

All variants were tested on one target, the spike HR2 peptide PDVDLGDISGINAS (SARS-CoV-2).

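The starting antibody came from a phage panning campaign against this peptide. AAYL49 was designed without a model: most single CDR substitutions and a random sample of double and triple ones. The assay is AlphaSeq: two haploid yeast populations carry antibody and antigen on their surface. Pairs that bind mate more often; barcode pairs of the diploids are counted by sequencing. Read counts were normalised to the haploid input and turned into Kd by a linear fit to BCL2-family pairs of known affinity, for each replicate. There are three technical replicates.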

Each scFv is VH, the linker GGGGSGGGGSGGGGS, VL, as in the parent Ab-14, and differs from it in the CDRs of the heavy chain only.
VH: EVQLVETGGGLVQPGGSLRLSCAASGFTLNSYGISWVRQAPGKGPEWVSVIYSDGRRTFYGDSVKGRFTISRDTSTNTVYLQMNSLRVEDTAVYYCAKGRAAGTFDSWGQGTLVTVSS
VL: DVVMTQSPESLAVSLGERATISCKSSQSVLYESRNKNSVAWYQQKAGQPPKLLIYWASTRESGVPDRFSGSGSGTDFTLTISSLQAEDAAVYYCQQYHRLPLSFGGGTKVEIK

Positions count from residue 1 of the parent VH; F27W puts W in place of F.
Scale: log10 of Kd in nM, estimated from mating counts; low values are strong binders.
Replicates are averaged; those with no signal do not enter the mean.
"ND" means that the variant was in the library but no mating with the target was seen in that replicate; the authors take this as a sign of poor binding, and no number exists.
In this assay the parent's reference entry averaged 0.65; its copy inside this library read 4.11 (one replicate of three).
Empty control strains, which show no peptide, gave a signal in 15% of pairings with library AAYL49; the median was 4.06 and 95% of these signals were weaker than 2.83. No background was subtracted. The control count says in how many pairings with the empty strains this scFv gave a signal, with their mean in brackets.

| changes | replicates, log10 nM | log10 Kd (nM), mean | control signals |
|---|---|---|---|
| F27W+N30S+R57F | 4.36 / 5.27 / 5.56 | 5.06 | 7 of 9 (4.32) |
| D54V+G103Q+S107L | ND / ND / ND | ND | 0 of 9 |
| Y32G+S53P+S63Q | ND / 3.24 / ND | 3.24 | 2 of 9 (3.23) |
| F59N+G99P+A102Y | ND / ND / ND | ND | 0 of 9 |
| G33S+Y52G+G61Q | ND / ND / 4.37 | 4.37 | 2 of 9 (5.19) |
| G33Y+G103A+D106P | ND / ND / 4.72 | 4.72 | 2 of 9 (4.00) |
| S35R+V50M+I51E | ND / ND / ND | ND | 1 of 9 (3.78) |
| G26E+A101E+A102I | ND / ND / ND | ND | 1 of 9 (2.46) |
| T28S+N30P+T104N | ND / 3.01 / ND | 3.01 | 1 of 9 (3.41) |
| T28Y+I34W+K65D | ND / 3.76 / ND | 3.76 | 2 of 9 (3.47) |
| T28W+S31N+K65N | 2.45 / 2.74 / 2.79 | 2.66 | 0 of 9 |
| R56Y+K65V+F105P | 5.40 / 3.19 / 3.82 | 4.13 | 0 of 9 |
| S31K+R57Y+S107D | ND / 3.69 / ND | 3.69 | 3 of 9 (4.31) |
| S35Y+T58G+T104L | 4.56 / 3.17 / ND | 3.87 | 5 of 9 (4.59) |
| Y32P+G33E+T58L | ND / ND / ND | ND | 0 of 9 |
| S53A+F105E | ND / ND / ND | ND | 0 of 9 |
| S31W+G99W | ND / ND / ND | ND | 0 of 9 |
| T58Y+G61S+D106T | ND / ND / ND | ND | 0 of 9 |
| I34R+T58K+A101Q | 1.61 / 1.56 / 1.47 | 1.55 | 1 of 9 (5.90) |
| F27M+R57M+R100T | ND / ND / ND | ND | 0 of 9 |
| T28G+F59S+S63I | 2.67 / 2.94 / ND | 2.80 | 3 of 9 (4.29) |
| S35F+K65Q+F105G | ND / 4.89 / ND | 4.89 | 2 of 9 (3.50) |
| T58N+T104G+S107C | 1.01 / 1.44 / 2.76 | 1.74 | 0 of 9 |
| L29Y+V50H+G99L | 4.29 / ND / ND | 4.29 | 3 of 9 (3.72) |
| G33T+F59I | ND / ND / 5.22 | 5.22 | 2 of 9 (4.08) |
| L29P+S35W+K65P | ND / 3.76 / ND | 3.76 | 0 of 9 |
| L29G+I51Q+Y52R | 4.82 / ND / 4.58 | 4.70 | 4 of 9 (4.71) |
| Y32M+R56A+R100T | 1.20 / 1.54 / 2.21 | 1.65 | 0 of 9 |
| G33H+S53M+F59G | ND / ND / ND | ND | 0 of 9 |
| D54S+F59K+A101D | ND / ND / ND | ND | 1 of 9 (3.23) |
| G26V+F59P+G103W | ND / ND / ND | ND | 1 of 9 (3.73) |
| G33Q+G55I+T104A | 4.57 / 4.69 / 5.42 | 4.89 | 6 of 9 (4.63) |
| N30L+Y60V+D106I | ND / ND / 2.82 | 2.82 | 0 of 9 |
| G33E+G99V+S107E | ND / ND / ND | ND | 0 of 9 |
| N30E+I34Q+F105Y | ND / ND / 3.20 | 3.20 | 3 of 9 (4.10) |
| G26S+R100T | 2.72 / 2.30 / 2.67 | 2.57 | 5 of 9 (4.17) |
| G99W+A102M+F105C | ND / ND / ND | ND | 1 of 9 (2.56) |
| I34L+S35H+Y60I | ND / ND / ND | ND | 1 of 9 (2.56) |
| S53G+Y60N+F105E | ND / ND / ND | ND | 1 of 9 (4.85) |
| I34P+Y52V | 3.93 / ND / ND | 3.93 | 3 of 9 (4.33) |
| G26S+G61F+D62G | ND / ND / ND | ND | 0 of 9 |
| S53N+V64A+K65D | 3.52 / 3.54 / ND | 3.53 | 1 of 9 (4.34) |

The closing 7 entries, repeated:

changes	replicates, log10 nM	log10 Kd (nM), mean	control signals
G26S+R100T	2.72 / 2.30 / 2.67	2.57	5 of 9 (4.17)
G99W+A102M+F105C	ND / ND / ND	ND	1 of 9 (2.56)
I34L+S35H+Y60I	ND / ND / ND	ND	1 of 9 (2.56)
S53G+Y60N+F105E	ND / ND / ND	ND	1 of 9 (4.85)
I34P+Y52V	3.93 / ND / ND	3.93	3 of 9 (4.33)
G26S+G61F+D62G	ND / ND / ND	ND	0 of 9
S53N+V64A+K65D	3.52 / 3.54 / ND	3.53	1 of 9 (4.34)